Results on 3 compounds are retold here after ChEMBL document CHEMBL4476868, “Benzimidazole derivatives and uses thereof” (2017).

By UniProt entry, the sequences of proteins in these tests, tags left out.
UniProt Q9NR19, whole entry: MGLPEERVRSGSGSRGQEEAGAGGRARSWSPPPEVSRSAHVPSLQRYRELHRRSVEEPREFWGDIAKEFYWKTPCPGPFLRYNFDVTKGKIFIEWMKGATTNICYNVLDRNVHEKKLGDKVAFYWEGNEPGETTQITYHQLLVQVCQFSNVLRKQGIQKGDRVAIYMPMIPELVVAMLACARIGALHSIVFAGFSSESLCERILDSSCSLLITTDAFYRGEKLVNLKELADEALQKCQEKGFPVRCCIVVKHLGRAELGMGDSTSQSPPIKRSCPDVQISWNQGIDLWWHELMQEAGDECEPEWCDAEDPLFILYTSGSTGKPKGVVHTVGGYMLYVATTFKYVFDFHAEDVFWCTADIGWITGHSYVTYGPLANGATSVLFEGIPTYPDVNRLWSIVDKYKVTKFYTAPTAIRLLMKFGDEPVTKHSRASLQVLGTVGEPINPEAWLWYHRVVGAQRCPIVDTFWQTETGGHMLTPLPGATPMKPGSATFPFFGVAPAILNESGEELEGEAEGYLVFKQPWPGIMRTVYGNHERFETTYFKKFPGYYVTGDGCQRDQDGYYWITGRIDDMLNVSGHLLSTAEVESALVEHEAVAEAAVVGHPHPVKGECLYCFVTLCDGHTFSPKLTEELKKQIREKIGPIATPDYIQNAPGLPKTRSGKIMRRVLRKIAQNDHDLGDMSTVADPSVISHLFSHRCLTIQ

Some compounds may have been tested in ways that are not shown here. Some results are limits rather than exact numbers.

In the test the target is Acetyl-coenzyme A synthetase, cytoplasmic (Homo sapiens, UniProt Q9NR19). Put plainly: Inhibition of N-terminal 6x-histidine tagged human ACSS2 expressed in insect cells assessed as reduction in pyrophosphate production using CoA and ATP incubated for 30 mins by pyrophosphatase coupled enzymatic assay.

On to `C[C@@H](O)CNC(=O)c1ccc2nc(C(O)(c3ccccc3)c3ccccc3)n(CCN(C)C)c2c1`, for which the IC50 was in the range of 250 to 1000 nM. The same measure for `CNCCn1c(C(O)(c2ccccc2)c2ccccc2)nc2ccc(C(=O)NC[C@@H](C)O)cc21`: more than 1000 nM. The same measure for `C[C@@H](O)CNC(=O)c1ccc2nc(C(O)(c3ccccc3)c3ccccc3)n(CCN)c2c1`: 250 to 1000 nM.

A word on the IC50: it is the point on the concentration scale where inhibition reaches its midpoint.
